The results in this text go back to ChEMBL document CHEMBL2086369, “Design, synthesis, and pharmacological characterization of indol-3-ylacetamides, indol-3-yloxoacetamides, and indol-3-ylcarboxamides: potent and selective CB2 cannabinoid receptor inverse agonists” (J Med Chem, 2012).

By UniProt entry, the sequences of proteins in these tests, tags left out.
UniProt P21554, whole entry: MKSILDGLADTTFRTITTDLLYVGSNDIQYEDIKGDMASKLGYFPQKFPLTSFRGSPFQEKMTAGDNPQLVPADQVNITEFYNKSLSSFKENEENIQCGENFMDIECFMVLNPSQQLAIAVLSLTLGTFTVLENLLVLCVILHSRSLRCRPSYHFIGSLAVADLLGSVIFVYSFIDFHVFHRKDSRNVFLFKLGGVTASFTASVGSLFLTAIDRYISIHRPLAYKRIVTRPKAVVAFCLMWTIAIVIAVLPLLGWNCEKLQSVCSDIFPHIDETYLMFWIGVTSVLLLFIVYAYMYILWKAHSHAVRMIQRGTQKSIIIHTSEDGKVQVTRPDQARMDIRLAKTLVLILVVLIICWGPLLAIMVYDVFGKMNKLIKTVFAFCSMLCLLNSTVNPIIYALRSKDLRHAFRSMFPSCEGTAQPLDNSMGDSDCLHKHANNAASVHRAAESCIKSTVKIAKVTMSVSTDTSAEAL

In the test the target is Cannabinoid receptor 1 (Homo sapiens, UniProt P21554). The experiment in a line: biochemical. The test is classed as cell-based, HEK293.

Molecules are shown by their SMILES.

Turning to `Cc1ccc(Cn2nc(C(=O)N[C@@H]3C(C)(C)[C@@H]4CC[C@@]3(C)C4)cc2-c2ccc(Cl)c(C)c2)cc1` [SR-144528], the Ki was over 2820 nM.

The term Ki denotes a measure of affinity in units of concentration, obtained from inhibition or displacement. Low values mean a stronger hold on the target, high ones a looser hold on the target.
